{"source": "paper PMC10330721", "about": "“Chemo-enzymatic synthesis and biological activity evaluation of propenylbenzene derivatives” (Frontiers in Microbiology, 2023)", "assay": "Haemolytic activity assay", "type": "cell-based", "settings": "human red blood cells (RBCs) from healthy donors, 37°C, read-out: Percentage of haemolysis", "data": [{"smiles": "CC=Cc1ccccc1", "note": "[2a, prop-1-en-1-yl benzene]", "values": [{"measurement": "hemolysis at 1 h, 10 µM", "setting": "10 µM", "result": "1.27 ± 0.319", "unit": "%"}, {"measurement": "hemolysis at 1 h, 20 µM", "setting": "20 µM", "result": "1.67 ± 0.175", "unit": "%"}, {"measurement": "hemolysis at 1 h, 40 µM", "setting": "40 µM", "result": "1.48 ± 0.034", "unit": "%"}, {"measurement": "hemolysis at 1 h, 60 µM", "setting": "60 µM", "result": "1.77 ± 0.155", "unit": "%"}, {"measurement": "hemolysis at 1 h, 80 µM", "setting": "80 µM", "result": "1.25 ± 0.263", "unit": "%"}, {"measurement": "hemolysis at 1 h, 100 µM", "setting": "100 µM", "result": "2.04 ± 0.067", "unit": "%"}]}]}
